Laboratory results reported in the NIST ThermoML archive (doi:10.1021/acs.jced.5b00838).
± gives the expanded uncertainty stated by the source.

Assays:
[1] = excess molar enthalpy (molar enthalpy of mixing); xn = mol fraction of the nth substance listed; details: 100 kPa, Liquid, isothermal titration calorimetry
[2] = 101.33 kPa, Liquid, Vibrating tube method

CCCCOCCCC [dibutyl ether] + CC#N
excess molar enthalpy ([1]; 298.15 K, x2 = 0.0599): 0.325 ± 0.0045 kJ/mol
excess molar enthalpy ([1]; 298.15 K, x2 = 0.113): 0.549 ± 0.0072 kJ/mol
excess molar enthalpy ([1]; 298.15 K, x2 = 0.1604): 0.717 ± 0.0092 kJ/mol
excess molar enthalpy ([1]; 298.15 K, x2 = 0.2031): 0.847 ± 0.011 kJ/mol
excess molar enthalpy ([1]; 298.15 K, x2 = 0.2416): 0.946 ± 0.012 kJ/mol
excess molar enthalpy ([1]; 298.15 K, x2 = 0.3084): 1.09 ± 0.014 kJ/mol
excess molar enthalpy ([1]; 298.15 K, x2 = 0.3644): 1.17 ± 0.015 kJ/mol
excess molar enthalpy ([1]; 298.15 K, x2 = 0.412): 1.22 ± 0.015 kJ/mol
excess molar enthalpy ([1]; 298.15 K, x2 = 0.453): 1.25 ± 0.016 kJ/mol
excess molar enthalpy ([1]; 298.15 K, x2 = 0.4886): 1.27 ± 0.016 kJ/mol
excess molar enthalpy ([1]; 298.15 K, x2 = 0.5199): 1.27 ± 0.016 kJ/mol
excess molar enthalpy ([1]; 298.15 K, x2 = 0.5476): 1.27 ± 0.016 kJ/mol
excess molar enthalpy ([1]; 298.15 K, x2 = 0.5722): 1.26 ± 0.016 kJ/mol
excess molar enthalpy ([1]; 298.15 K, x2 = 0.5944): 1.25 ± 0.016 kJ/mol
excess molar enthalpy ([1]; 298.15 K, x2 = 0.6143): 1.24 ± 0.016 kJ/mol
excess molar enthalpy ([1]; 298.15 K, x2 = 0.6367): 1.22 ± 0.015 kJ/mol
excess molar enthalpy ([1]; 298.15 K, x2 = 0.6567): 1.2 ± 0.015 kJ/mol
excess molar enthalpy ([1]; 298.15 K, x2 = 0.6745): 1.18 ± 0.015 kJ/mol
excess molar enthalpy ([1]; 298.15 K, x2 = 0.6906): 1.16 ± 0.015 kJ/mol
excess molar enthalpy ([1]; 298.15 K, x2 = 0.7052): 1.14 ± 0.014 kJ/mol
excess molar enthalpy ([1]; 298.15 K, x2 = 0.7185): 1.12 ± 0.014 kJ/mol
excess molar enthalpy ([1]; 298.15 K, x2 = 0.7306): 1.1 ± 0.014 kJ/mol
excess molar enthalpy ([1]; 298.15 K, x2 = 0.7417): 1.08 ± 0.014 kJ/mol
excess molar enthalpy ([1]; 298.15 K, x2 = 0.752): 1.06 ± 0.013 kJ/mol
excess molar enthalpy ([1]; 298.15 K, x2 = 0.7615): 1.04 ± 0.013 kJ/mol
excess molar enthalpy ([1]; 298.15 K, x2 = 0.7952): 0.943 ± 0.012 kJ/mol
excess molar enthalpy ([1]; 298.15 K, x2 = 0.8161): 0.886 ± 0.011 kJ/mol
excess molar enthalpy ([1]; 298.15 K, x2 = 0.8382): 0.82 ± 0.01 kJ/mol
excess molar enthalpy ([1]; 298.15 K, x2 = 0.8615): 0.741 ± 0.0095 kJ/mol
excess molar enthalpy ([1]; 298.15 K, x2 = 0.8761): 0.685 ± 0.0089 kJ/mol
excess molar enthalpy ([1]; 298.15 K, x2 = 0.8911): 0.622 ± 0.0081 kJ/mol
excess molar enthalpy ([1]; 298.15 K, x2 = 0.9068): 0.552 ± 0.0073 kJ/mol
excess molar enthalpy ([1]; 298.15 K, x2 = 0.9229): 0.474 ± 0.0063 kJ/mol
excess molar enthalpy ([1]; 298.15 K, x2 = 0.9397): 0.385 ± 0.0053 kJ/mol
excess molar enthalpy ([1]; 298.15 K, x2 = 0.9512): 0.32 ± 0.0045 kJ/mol
excess molar enthalpy ([1]; 298.15 K, x2 = 0.9629): 0.249 ± 0.0037 kJ/mol
excess molar enthalpy ([1]; 298.15 K, x2 = 0.975): 0.172 ± 0.0029 kJ/mol
excess molar enthalpy ([1]; 298.15 K, x2 = 0.9873): 0.088 ± 0.0021 kJ/mol
excess molar enthalpy ([1]; 308.15 K, x2 = 0.0591): 0.343 ± 0.0047 kJ/mol
excess molar enthalpy ([1]; 308.15 K, x2 = 0.1116): 0.582 ± 0.0076 kJ/mol
excess molar enthalpy ([1]; 308.15 K, x2 = 0.1586): 0.759 ± 0.0097 kJ/mol
excess molar enthalpy ([1]; 308.15 K, x2 = 0.2008): 0.893 ± 0.011 kJ/mol
excess molar enthalpy ([1]; 308.15 K, x2 = 0.239): 0.997 ± 0.013 kJ/mol
excess molar enthalpy ([1]; 308.15 K, x2 = 0.3054): 1.14 ± 0.014 kJ/mol
excess molar enthalpy ([1]; 308.15 K, x2 = 0.3612): 1.23 ± 0.016 kJ/mol
excess molar enthalpy ([1]; 308.15 K, x2 = 0.4087): 1.29 ± 0.016 kJ/mol
excess molar enthalpy ([1]; 308.15 K, x2 = 0.4496): 1.32 ± 0.017 kJ/mol
excess molar enthalpy ([1]; 308.15 K, x2 = 0.4852): 1.33 ± 0.017 kJ/mol
excess molar enthalpy ([1]; 308.15 K, x2 = 0.5164): 1.34 ± 0.017 kJ/mol
excess molar enthalpy ([1]; 308.15 K, x2 = 0.5441): 1.34 ± 0.017 kJ/mol
excess molar enthalpy ([1]; 308.15 K, x2 = 0.5688): 1.33 ± 0.017 kJ/mol
excess molar enthalpy ([1]; 308.15 K, x2 = 0.591): 1.32 ± 0.017 kJ/mol
excess molar enthalpy ([1]; 308.15 K, x2 = 0.611): 1.3 ± 0.016 kJ/mol
excess molar enthalpy ([1]; 308.15 K, x2 = 0.6335): 1.28 ± 0.016 kJ/mol
excess molar enthalpy ([1]; 308.15 K, x2 = 0.6535): 1.26 ± 0.016 kJ/mol
excess molar enthalpy ([1]; 308.15 K, x2 = 0.6715): 1.24 ± 0.016 kJ/mol
excess molar enthalpy ([1]; 308.15 K, x2 = 0.6877): 1.22 ± 0.015 kJ/mol
excess molar enthalpy ([1]; 308.15 K, x2 = 0.7023): 1.2 ± 0.015 kJ/mol
excess molar enthalpy ([1]; 308.15 K, x2 = 0.7157): 1.17 ± 0.015 kJ/mol
excess molar enthalpy ([1]; 308.15 K, x2 = 0.7177): 1.16 ± 0.015 kJ/mol
excess molar enthalpy ([1]; 308.15 K, x2 = 0.7279): 1.15 ± 0.015 kJ/mol
excess molar enthalpy ([1]; 308.15 K, x2 = 0.7386): 1.12 ± 0.014 kJ/mol
excess molar enthalpy ([1]; 308.15 K, x2 = 0.7391): 1.13 ± 0.014 kJ/mol
excess molar enthalpy ([1]; 308.15 K, x2 = 0.7494): 1.11 ± 0.014 kJ/mol
excess molar enthalpy ([1]; 308.15 K, x2 = 0.7589): 1.09 ± 0.014 kJ/mol
excess molar enthalpy ([1]; 308.15 K, x2 = 0.7607): 1.07 ± 0.014 kJ/mol
excess molar enthalpy ([1]; 308.15 K, x2 = 0.7842): 1.02 ± 0.013 kJ/mol
excess molar enthalpy ([1]; 308.15 K, x2 = 0.8092): 0.948 ± 0.012 kJ/mol
excess molar enthalpy ([1]; 308.15 K, x2 = 0.8358): 0.864 ± 0.011 kJ/mol
excess molar enthalpy ([1]; 308.15 K, x2 = 0.8526): 0.804 ± 0.01 kJ/mol
excess molar enthalpy ([1]; 308.15 K, x2 = 0.8701): 0.737 ± 0.0095 kJ/mol
excess molar enthalpy ([1]; 308.15 K, x2 = 0.8884): 0.66 ± 0.0086 kJ/mol
excess molar enthalpy ([1]; 308.15 K, x2 = 0.9074): 0.571 ± 0.0075 kJ/mol
excess molar enthalpy ([1]; 308.15 K, x2 = 0.9273): 0.469 ± 0.0063 kJ/mol
excess molar enthalpy ([1]; 308.15 K, x2 = 0.941): 0.392 ± 0.0054 kJ/mol
excess molar enthalpy ([1]; 308.15 K, x2 = 0.9551): 0.308 ± 0.0044 kJ/mol
excess molar enthalpy ([1]; 308.15 K, x2 = 0.9696): 0.215 ± 0.0034 kJ/mol
excess molar enthalpy ([1]; 308.15 K, x2 = 0.9846): 0.112 ± 0.0023 kJ/mol

CCCCOCCCC [dibutyl ether]
mass density ([2]; 288.15 K): 772.45 ± 1.6 kg/m3
mass density ([2]; 293.15 K): 768.05 ± 1.5 kg/m3
mass density ([2]; 298.15 K): 763.7 ± 1.5 kg/m3
mass density ([2]; 303.15 K): 759.4 ± 1.5 kg/m3
mass density ([2]; 308.15 K): 755 ± 1.5 kg/m3
mass density ([2]; 313.15 K): 750.62 ± 1.5 kg/m3
mass density ([2]; 318.15 K): 746.24 ± 1.5 kg/m3
mass density ([2]; 323.15 K): 741.87 ± 1.5 kg/m3
